{
  "sequences": {"note": "Sequences of proteins named here, by UniProt entry; tags and fusion partners are left off. A change or cut given only in a name is not applied to a line headed by its entry.", "UniProt P51449": "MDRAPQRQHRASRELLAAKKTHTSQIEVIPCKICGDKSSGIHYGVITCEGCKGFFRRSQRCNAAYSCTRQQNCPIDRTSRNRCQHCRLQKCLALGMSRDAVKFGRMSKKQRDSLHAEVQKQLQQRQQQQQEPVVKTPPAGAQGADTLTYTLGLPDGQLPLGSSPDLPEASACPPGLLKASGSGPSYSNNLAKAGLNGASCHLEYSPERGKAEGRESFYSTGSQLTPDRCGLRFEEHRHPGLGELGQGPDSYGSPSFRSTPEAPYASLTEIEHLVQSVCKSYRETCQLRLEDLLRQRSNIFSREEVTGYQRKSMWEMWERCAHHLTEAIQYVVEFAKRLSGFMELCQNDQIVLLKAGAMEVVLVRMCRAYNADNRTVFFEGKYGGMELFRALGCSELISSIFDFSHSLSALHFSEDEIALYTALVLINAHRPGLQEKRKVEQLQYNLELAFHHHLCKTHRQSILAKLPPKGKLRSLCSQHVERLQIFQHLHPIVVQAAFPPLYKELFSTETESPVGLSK"},
  "source": "ChEMBL document CHEMBL5338779",
  "about": "“Discovery, Synthesis, and In Vitro Characterization of 2,3 Derivatives of 4,5,6,7-Tetrahydro-Benzothiophene as Potent Modulators of Retinoic Acid Receptor-Related Orphan Receptor γt” (J Med Chem, 2023)",
  "target": "Nuclear receptor ROR-gamma (Homo sapiens, UniProt P51449)",
  "conditions": "HEK293T, filed as inverse agonist, dose 0.004-1000 nM",
  "data": [
    {"smiles": "CCc1ccc(N(CC(C)C)S(=O)(=O)c2ccc(OCC3CCOCC3)c(CO)c2)cc1", "note": "[GSK2981278]", "values": [
      {"measurement": "deltaG", "value": -46.9, "unit": "kJ/mol"}
    ]}
  ]
}
